Test in all cases: cell-based
Test [1] addresses T1, hNav1.7 (Homo sapiens, UniProt Q15858). It is filed as cell-based.
Test [2] has as its target T1, hNav1.7.
The target of test [3] is hNav1.5 (Homo sapiens, UniProt Q14524). The following applies: IonWorks Quattro, read-out: IWQ Use Nav1.5.

Chains of the proteins cited; added tags and fusions are not shown.
UniProt Q15858, whole entry, looked up: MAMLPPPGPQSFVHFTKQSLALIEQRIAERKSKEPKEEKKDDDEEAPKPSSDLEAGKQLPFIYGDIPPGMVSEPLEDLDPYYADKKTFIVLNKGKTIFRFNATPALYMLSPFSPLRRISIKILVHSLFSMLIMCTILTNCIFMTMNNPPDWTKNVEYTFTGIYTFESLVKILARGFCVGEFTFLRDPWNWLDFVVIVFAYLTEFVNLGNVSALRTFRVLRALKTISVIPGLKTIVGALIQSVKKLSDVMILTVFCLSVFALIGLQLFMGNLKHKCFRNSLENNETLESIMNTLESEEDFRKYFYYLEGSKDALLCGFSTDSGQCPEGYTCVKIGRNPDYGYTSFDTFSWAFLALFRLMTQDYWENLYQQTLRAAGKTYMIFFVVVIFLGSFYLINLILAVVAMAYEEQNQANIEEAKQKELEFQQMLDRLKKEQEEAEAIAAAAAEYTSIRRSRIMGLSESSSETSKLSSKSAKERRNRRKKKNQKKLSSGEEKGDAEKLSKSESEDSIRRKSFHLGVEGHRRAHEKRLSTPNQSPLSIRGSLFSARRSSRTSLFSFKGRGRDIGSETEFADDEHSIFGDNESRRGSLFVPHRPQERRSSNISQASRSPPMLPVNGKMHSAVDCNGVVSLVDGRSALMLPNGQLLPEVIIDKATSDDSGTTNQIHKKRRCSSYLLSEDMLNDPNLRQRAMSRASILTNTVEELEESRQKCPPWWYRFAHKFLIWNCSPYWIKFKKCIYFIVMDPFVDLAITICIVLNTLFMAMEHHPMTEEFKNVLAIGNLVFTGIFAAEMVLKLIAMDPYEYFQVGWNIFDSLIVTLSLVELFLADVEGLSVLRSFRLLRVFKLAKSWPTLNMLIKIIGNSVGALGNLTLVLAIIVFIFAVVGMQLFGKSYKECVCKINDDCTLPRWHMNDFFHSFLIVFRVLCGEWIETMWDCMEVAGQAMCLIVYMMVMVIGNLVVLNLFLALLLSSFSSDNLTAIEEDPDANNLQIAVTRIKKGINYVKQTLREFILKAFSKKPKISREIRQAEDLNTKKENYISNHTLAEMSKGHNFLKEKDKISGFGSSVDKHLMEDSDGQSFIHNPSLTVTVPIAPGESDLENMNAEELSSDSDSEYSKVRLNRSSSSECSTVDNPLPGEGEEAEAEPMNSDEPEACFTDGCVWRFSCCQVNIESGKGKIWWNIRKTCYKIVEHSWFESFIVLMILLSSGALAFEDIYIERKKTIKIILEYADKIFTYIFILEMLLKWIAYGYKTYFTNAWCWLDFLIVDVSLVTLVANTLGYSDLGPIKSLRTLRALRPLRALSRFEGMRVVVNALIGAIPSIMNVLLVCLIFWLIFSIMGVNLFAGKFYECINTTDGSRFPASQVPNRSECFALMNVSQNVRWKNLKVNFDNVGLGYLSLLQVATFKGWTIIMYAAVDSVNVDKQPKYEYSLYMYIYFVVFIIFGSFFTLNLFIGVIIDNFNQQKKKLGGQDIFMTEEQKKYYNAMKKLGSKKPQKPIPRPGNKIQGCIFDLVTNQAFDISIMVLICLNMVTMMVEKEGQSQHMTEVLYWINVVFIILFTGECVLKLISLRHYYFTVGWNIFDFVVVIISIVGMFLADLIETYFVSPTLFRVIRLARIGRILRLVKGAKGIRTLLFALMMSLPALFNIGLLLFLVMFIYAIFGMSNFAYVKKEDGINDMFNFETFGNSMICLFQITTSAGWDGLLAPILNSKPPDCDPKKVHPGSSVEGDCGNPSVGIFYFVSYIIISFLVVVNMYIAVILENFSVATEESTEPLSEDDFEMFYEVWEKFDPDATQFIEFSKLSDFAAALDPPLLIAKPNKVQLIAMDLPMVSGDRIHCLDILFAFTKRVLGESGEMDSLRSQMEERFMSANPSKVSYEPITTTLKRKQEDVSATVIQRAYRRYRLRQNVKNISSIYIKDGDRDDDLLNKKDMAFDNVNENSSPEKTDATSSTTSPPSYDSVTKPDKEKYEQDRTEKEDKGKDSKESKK
UniProt Q14524, whole entry, looked up: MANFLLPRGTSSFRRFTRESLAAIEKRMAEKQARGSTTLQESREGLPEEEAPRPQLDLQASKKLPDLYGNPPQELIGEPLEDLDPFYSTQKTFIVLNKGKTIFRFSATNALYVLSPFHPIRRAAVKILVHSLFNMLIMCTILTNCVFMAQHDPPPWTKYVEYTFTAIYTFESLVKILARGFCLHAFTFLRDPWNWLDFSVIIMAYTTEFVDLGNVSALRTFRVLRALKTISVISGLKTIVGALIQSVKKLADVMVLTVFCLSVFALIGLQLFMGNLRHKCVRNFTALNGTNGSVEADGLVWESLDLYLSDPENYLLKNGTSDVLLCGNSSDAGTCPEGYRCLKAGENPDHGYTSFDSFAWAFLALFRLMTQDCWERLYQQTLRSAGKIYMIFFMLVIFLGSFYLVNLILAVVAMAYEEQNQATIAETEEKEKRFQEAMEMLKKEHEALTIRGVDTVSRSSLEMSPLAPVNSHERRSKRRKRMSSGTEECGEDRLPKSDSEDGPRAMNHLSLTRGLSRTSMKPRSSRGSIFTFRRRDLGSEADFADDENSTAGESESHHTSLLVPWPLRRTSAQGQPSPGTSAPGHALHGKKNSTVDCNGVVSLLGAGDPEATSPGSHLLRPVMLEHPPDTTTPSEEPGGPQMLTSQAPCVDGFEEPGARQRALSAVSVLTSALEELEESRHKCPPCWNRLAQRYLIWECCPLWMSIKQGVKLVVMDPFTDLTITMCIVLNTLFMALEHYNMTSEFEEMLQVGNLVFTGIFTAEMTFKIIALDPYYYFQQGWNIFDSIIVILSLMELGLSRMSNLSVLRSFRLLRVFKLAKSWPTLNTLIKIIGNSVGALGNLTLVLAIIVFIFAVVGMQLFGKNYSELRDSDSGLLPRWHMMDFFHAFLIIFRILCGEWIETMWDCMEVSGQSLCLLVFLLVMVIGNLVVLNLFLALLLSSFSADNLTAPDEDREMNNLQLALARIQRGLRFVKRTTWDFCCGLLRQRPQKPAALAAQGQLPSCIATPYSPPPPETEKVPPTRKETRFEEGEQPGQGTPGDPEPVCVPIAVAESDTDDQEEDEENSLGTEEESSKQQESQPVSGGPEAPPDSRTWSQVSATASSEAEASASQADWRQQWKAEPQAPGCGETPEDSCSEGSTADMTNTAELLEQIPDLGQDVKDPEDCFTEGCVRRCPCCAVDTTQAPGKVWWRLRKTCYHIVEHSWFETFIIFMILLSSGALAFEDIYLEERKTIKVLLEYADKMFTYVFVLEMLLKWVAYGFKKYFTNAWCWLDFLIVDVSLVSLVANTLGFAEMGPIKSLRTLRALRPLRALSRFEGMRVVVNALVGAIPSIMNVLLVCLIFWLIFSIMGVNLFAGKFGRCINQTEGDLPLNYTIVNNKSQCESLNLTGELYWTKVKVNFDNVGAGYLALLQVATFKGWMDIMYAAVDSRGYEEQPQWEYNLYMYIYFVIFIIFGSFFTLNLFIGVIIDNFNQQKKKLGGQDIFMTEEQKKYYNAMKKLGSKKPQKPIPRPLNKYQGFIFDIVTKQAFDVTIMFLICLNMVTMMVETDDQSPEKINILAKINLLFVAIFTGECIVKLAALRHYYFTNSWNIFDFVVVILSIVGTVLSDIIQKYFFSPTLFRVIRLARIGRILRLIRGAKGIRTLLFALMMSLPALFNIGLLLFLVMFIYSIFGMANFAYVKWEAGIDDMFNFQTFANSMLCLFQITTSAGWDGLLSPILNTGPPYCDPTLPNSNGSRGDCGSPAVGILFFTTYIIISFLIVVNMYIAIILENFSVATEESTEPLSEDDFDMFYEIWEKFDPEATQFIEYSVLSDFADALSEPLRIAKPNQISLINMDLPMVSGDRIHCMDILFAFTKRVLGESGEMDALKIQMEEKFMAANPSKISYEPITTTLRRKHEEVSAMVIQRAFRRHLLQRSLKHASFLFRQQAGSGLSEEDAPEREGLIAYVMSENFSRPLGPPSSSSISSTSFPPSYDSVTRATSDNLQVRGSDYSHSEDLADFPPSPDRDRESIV

Read-outs that look alike come from different tables or passages of the source. Where only a bound is given, the exact number is not on record here.

Data on nine compounds can be found in patent publication US9340590B2 (priority 2011, dated 2016).

As to `CC[C@H](C)[C@@H]1NC(=O)[C@@H]2CSSC[C@@H]3NC(=O)[C@H](C(C)C)NC(=O)[C@H](CC(C)C)NC(=O)[C@H](CC(N)=O)NC(=O)[C@@H]4CCCN4C(=O)[C@H](CCCNC(=N)N)NC(=O)[C@H](CSSC[C@H](NC(=O)[C@@H](N)CC(=O)O)C(=O)N[C@@H](CC(C)C)C(=O)NCC(=O)N[C@@H](Cc4ccccc4)C(=O)N[C@@H](CCSC)C(=O)N[C@@H](CCCNC(=N)N)C(=O)N[C@@H](CCCCN)C(=O)N2)NC(=O)[C@H](CSSC[C@@H](C(=O)N[C@@H](CCCCN)C(=O)N[C@@H](Cc2ccc(O)cc2)C(=O)N[C@H](C(=O)N[C@@H](Cc2ccccc2)C(N)=O)C(C)C)NC(=O)[C@H](Cc2cccc4ccccc24)NC(=O)[C@H](CCCCN)NC(=O)[C@H](Cc2c[nH]cn2)NC(=O)[C@H]([C@@H](C)O)NC(=O)[C@H](CCCNC(=N)N)NC(=O)[C@H](CO)NC3=O)NC(=O)[C@H](CCCCN)NC(=O)[C@H](CC(=O)O)NC(=O)[C@H](CC(N)=O)NC(=O)[C@H](CC(=O)O)NC(=O)[C@@H]2CCCN2C1=O` [[1-Nal29]GpTx-1(1-34)], in test [1] (read-out: Nav1.7 Use IC50), the IC50 was 33 nM.

In the case of “Biotin-Ahx-[Ala5,Phe6,Atz(2 kDa EtO-PEG*-{Biotin-Ahx-[Ala5,Phe6,Atz13*,Leu26,Arg28]GpTx-1(1-34)})13,Leu26,Arg28]GpTx-1(1-34) [Homodimeric Conjugate 4]”, in test [1], the “Nav1.4/Nav1.7 Use” value turned out to be 38 and the “Nav1.5/Nav1.7 Use” value is over 110. Also, in test [1] (read-out: Nav1.7 Use IC50), the IC50 is 91 nM.

`CC[C@H](C)[C@@H]1NC(=O)[C@@H]2CSSC[C@@H]3NC(=O)[C@H](C(C)C)NC(=O)[C@H](CC(C)C)NC(=O)[C@H](CC(N)=O)NC(=O)[C@@H]4CCCN4C(=O)[C@H](CCCNC(=N)N)NC(=O)[C@H](CSSC[C@H](NC(=O)[C@@H](N)CC(=O)O)C(=O)N[C@@H](CC(C)C)C(=O)NCC(=O)N[C@@H](C)C(=O)N[C@@H](Cc4ccccc4)C(=O)N[C@@H](CCCNC(=N)N)C(=O)N[C@@H](CCCCN)C(=O)N2)NC(=O)[C@H](CSSC[C@@H](C(=O)N[C@@H](CCCCN)C(=O)N[C@@H](Cc2ccc(O)cc2)C(=O)N[C@H](C(=O)N[C@@H](Cc2ccccc2)C(N)=O)C(C)C)NC(=O)[C@H](Cc2c[nH]c4ccccc24)NC(=O)[C@H](CCCNC(=N)N)NC(=O)[C@H](Cc2cnc[nH]2)NC(=O)[C@H]([C@@H](C)O)NC(=O)[C@H](CCCNC(=N)N)NC(=O)[C@H](CO)NC3=O)NC(=O)[C@H](CCCCN)NC(=O)[C@H](CC(=O)O)NC(=O)[C@H](CC(N)=O)NC(=O)[C@H](CC(=O)O)NC(=O)[C@@H]2CCCN2C1=O` [compound 809]: the IC50 is 300 nM in test [2] and over 5000 nM in test [3] (use-dependent block).

On to `CC[C@H](C)[C@@H]1NC(=O)[C@@H]2CSSC[C@@H]3NC(=O)[C@H](C(C)C)NC(=O)[C@H](CC(C)C)NC(=O)[C@H](CC(N)=O)NC(=O)[C@@H]4CCCN4C(=O)[C@H](CCCNC(=N)N)NC(=O)[C@H](CSSC[C@H](NC(=O)[C@@H](N)CC(=O)O)C(=O)N[C@@H](CC(C)C)C(=O)NCC(=O)N[C@@H](C)C(=O)N[C@@H](CC(C)C)C(=O)N[C@@H](CCCNC(=N)N)C(=O)N[C@@H](CCCCN)C(=O)N2)NC(=O)[C@H](CSSC[C@@H](C(=O)N[C@@H](CCCCN)C(=O)N[C@@H](Cc2ccc(O)cc2)C(=O)N[C@H](C(=O)N[C@@H](Cc2ccccc2)C(N)=O)C(C)C)NC(=O)[C@H](Cc2c[nH]c4ccccc24)NC(=O)[C@H](CCCNC(=N)N)NC(=O)[C@H](Cc2cnc[nH]2)NC(=O)[C@H]([C@@H](C)O)NC(=O)[C@H](CCCNC(=N)N)NC(=O)[C@H](CO)NC3=O)NC(=O)[C@H](CCCCN)NC(=O)[C@H](CC(=O)O)NC(=O)[C@H](CC(N)=O)NC(=O)[C@H](CC(=O)O)NC(=O)[C@@H]2CCCN2C1=O` [compound 810], for which the IC50 in test [2] (IonWorks Quattro, use-dependent block, hNav1.7, read-out: IWQ Use Nav1.7) is 200 nM; in test [3] (use-dependent block), over 5000 nM.

Regarding `CC[C@H](C)[C@@H]1NC(=O)[C@@H]2CSSC[C@@H]3NC(=O)[C@H](C(C)C)NC(=O)[C@H](CC(C)C)NC(=O)[C@H](CC(N)=O)NC(=O)[C@@H]4CCCN4C(=O)[C@H](CCCNC(=N)N)NC(=O)[C@H](CSSC[C@H](NC(=O)[C@@H](N)CC(=O)O)C(=O)N[C@@H](CC(C)C)C(=O)NCC(=O)N[C@@H](C)C(=O)N[C@@H](CC(C)C)C(=O)N[C@@H](CCCNC(=N)N)C(=O)N[C@@H](CCCCN)C(=O)N2)NC(=O)[C@H](CSSC[C@@H](C(=O)N[C@@H](CCCCN)C(=O)N[C@@H](Cc2ccc(O)cc2)C(=O)N[C@H](C(=O)N[C@@H](Cc2ccccc2)C(N)=O)C(C)C)NC(=O)[C@H](Cc2c[nH]c4ccccc24)NC(=O)[C@H](CCCCN)NC(=O)[C@H](Cc2cnc[nH]2)NC(=O)[C@H]([C@@H](C)O)NC(=O)[C@H](CCCNC(=N)N)NC(=O)[C@H](CO)NC3=O)NC(=O)[C@H](CCCCN)NC(=O)[C@H](CC(=O)O)NC(=O)[C@H](CC(N)=O)NC(=O)[C@H](CC(=O)O)NC(=O)[C@@H]2CCCN2C1=O` [compound 696], the IC50 in test [2] is 270 nM; in test [3] (use-dependent protocol), over 5000 nM.

For the compound `CC[C@H](C)[C@@H]1NC(=O)[C@@H]2CSSC[C@@H]3NC(=O)[C@H](C(C)C)NC(=O)[C@H](CC(C)C)NC(=O)[C@H](CC(N)=O)NC(=O)[C@@H]4CCCN4C(=O)[C@H](CCCNC(=N)N)NC(=O)[C@H](CSSC[C@H](NC(=O)[C@@H](N)CC(=O)O)C(=O)N[C@@H](CC(C)C)C(=O)NCC(=O)N[C@@H](C)C(=O)N[C@@H](CC(C)C)C(=O)N[C@@H](CCCNC(=N)N)C(=O)N[C@@H](CCCCN)C(=O)N2)NC(=O)[C@H](CSSC[C@@H](C(=O)N[C@@H](CCCCN)C(=O)N[C@@H](Cc2ccc(O)cc2)C(=O)N[C@H](C(=O)N[C@@H](Cc2ccccc2)C(N)=O)C(C)C)NC(=O)[C@H](Cc2c[nH]c4ccccc24)NC(=O)[C@H](CCCCN)NC(=O)[C@H](Cc2cnc[nH]2)NC(=O)[C@H]([C@@H](C)O)NC(=O)[C@H](CCCNC(=N)N)NC(=O)[C@H](CO)NC3=O)NC(=O)[C@H](CCCCN)NC(=O)[C@H](CC(=O)O)NC(=O)[C@H](CC(N)=O)NC(=O)[C@H](CC(=O)O)NC(=O)[C@@H]2CCCN2C1=O` [[Ala5;Leu6]GpTx-1(1-34)], in test [1] (Nav1.7 Use IC50), the IC50 turned out to be 30 nM.

As to `CC[C@H](C)[C@@H]1NC(=O)[C@@H]2CSSC[C@@H]3NC(=O)[C@H](C(C)C)NC(=O)[C@H](CC(C)C)NC(=O)[C@H](CC(N)=O)NC(=O)[C@@H]4CCCN4C(=O)[C@H](CCCNC(=N)N)NC(=O)[C@H](CSSC[C@H](NC(=O)[C@@H](N)CC(=O)O)C(=O)N[C@@H](CC(C)C)C(=O)NCC(=O)N[C@@H](Cc4ccccc4)C(=O)N[C@@H](CCSC)C(=O)N[C@@H](CCCNC(=N)N)C(=O)N[C@@H](CCCCN)C(=O)N2)NC(=O)[C@H](CSSC[C@@H](C(=O)N[C@@H](CCCCN)C(=O)N[C@@H](Cc2ccc(O)cc2)C(=O)N[C@H](C(=O)N[C@@H](Cc2ccccc2)C(N)=O)C(C)C)NC(=O)[C@H](Cc2cccc4ccccc24)NC(=O)[C@H](CCCCN)NC(=O)[C@H](Cc2cnc[nH]2)NC(=O)[C@H]([C@@H](C)O)NC(=O)[C@H](CCCNC(=N)N)NC(=O)[C@H](CO)NC3=O)NC(=O)[C@H](CCCCN)NC(=O)[C@H](CC(=O)O)NC(=O)[C@H](CC(N)=O)NC(=O)[C@H](CC(=O)O)NC(=O)[C@@H]2CCCN2C1=O` [SEQ ID NO: 79, [1-Nal29]GpTx-1], the IC50 in test [2] worked out at 460 nM.

As to `CC[C@H](C)[C@@H]1NC(=O)[C@@H]2CSSC[C@@H]3NC(=O)[C@H](C(C)C)NC(=O)[C@H](CC(C)C)NC(=O)[C@H](CC(N)=O)NC(=O)[C@@H]4CCCN4C(=O)[C@H](CCCNC(=N)N)NC(=O)[C@H](CSSC[C@H](NC(=O)[C@@H](N)CC(=O)O)C(=O)N[C@@H](CC(C)C)C(=O)NCC(=O)N[C@@H](C)C(=O)N[C@@H](Cc4ccccc4)C(=O)N[C@@H](CCCNC(=N)N)C(=O)N[C@@H](CCCCN)C(=O)N2)NC(=O)[C@H](CSSC[C@@H](C(=O)N[C@@H](CCCCN)C(=O)N[C@@H](Cc2ccc(O)cc2)C(=O)N[C@H](C(=O)N[C@@H](Cc2ccccc2)C(N)=O)C(C)C)NC(=O)[C@H](Cc2c[nH]c4ccccc24)NC(=O)[C@H](CCCNC(=N)N)NC(=O)[C@H](Cc2cnc[nH]2)NC(=O)[C@H]([C@@H](C)O)NC(=O)[C@H](CCCNC(=N)N)NC(=O)[C@H](CO)NC3=O)NC(=O)[C@H](CCCCN)NC(=O)[C@H](CC(=O)O)NC(=O)[C@H](CC(N)=O)NC(=O)[C@H](CC(=O)O)NC(=O)[C@@H]2CCCN2C1=O` [[Ala5;Phe6;Arg28]GpTx-1(1-34)], in test [1] (Nav1.7 Use IC50), the IC50 worked out at 12 nM.

In test [1] (Nav1.7 Use IC50), `CC[C@H](C)[C@@H]1NC(=O)[C@@H]2CSSC[C@@H]3NC(=O)[C@H](C(C)C)NC(=O)[C@H](CC(C)C)NC(=O)[C@H](CC(N)=O)NC(=O)[C@@H]4CCCN4C(=O)[C@H](CCCNC(=N)N)NC(=O)[C@H](CSSC[C@H](NC(=O)[C@@H](N)CC(=O)O)C(=O)N[C@@H](CC(C)C)C(=O)NCC(=O)N[C@@H](C)C(=O)N[C@@H](CC(C)C)C(=O)N[C@@H](CCCNC(=N)N)C(=O)N[C@@H](CCCCN)C(=O)N2)NC(=O)[C@H](CSSC[C@@H](C(=O)N[C@@H](CCCCN)C(=O)N[C@@H](Cc2ccc(O)cc2)C(=O)N[C@H](C(=O)N[C@@H](Cc2ccccc2)C(N)=O)C(C)C)NC(=O)[C@H](Cc2c[nH]c4ccccc24)NC(=O)[C@H](CCCNC(=N)N)NC(=O)[C@H](Cc2cnc[nH]2)NC(=O)[C@H]([C@@H](C)O)NC(=O)[C@H](CCCNC(=N)N)NC(=O)[C@H](CO)NC3=O)NC(=O)[C@H](CCCCN)NC(=O)[C@H](CC(=O)O)NC(=O)[C@H](CC(N)=O)NC(=O)[C@H](CC(=O)O)NC(=O)[C@@H]2CCCN2C1=O` [[Ala5;Leu6;Arg28]GpTx-1(1-34)] yielded an IC50 of 9 nM.
